Results taken from patent US7645449B2, “Sensitizing cells for apoptosis by selectively blocking cytokines” (priority 2003, dated 2010).

How the values were obtained:
[1] = test system: LNCaP prostate cancer cells; test: MTS viability of LNCaP cells: chemotherapy- and anti-CD95-induced apoptosis; assay type: cell-based, human
Procedure: (§1) Therefore, it appears that IL-4 is able to exert a significant effect on survival and growth of tumor cells, including a faster expansion of cells that survive chemotherapy treatment.
(§2) Human LNCAP prostate cancer cell line and human MDA-MB-231 breast cancer cell line were obtained from the American Type Culture Collection (ATCC, Manassas, Va.). Human RT112 bladder carcinoma cell line was kindly provided by Dr. M. Cippitelli (Regina Elena Cancer Institute, Rome, Italy). Cells were grown in RPMI 1640 (Life Technologies Inc., Grand Island, N.Y.) containing 10% heat inactivated fetal bovine serum supplemented with L-Glutamine 2 mM and 100 units/ml Penicillin-Streptomycin. […]
(§3) Cell viability was determined using the CellTiter 96® AQueous One Solution Cell Proliferation Assay (Promega, Madison, Wis.), according to the manufacturer's instructions. The assay is based on reduction of 3-(4,5-dimethylthiazol-2-yl)-5-(3-carboxymethoxyphenyl)-2-(4-sulfophenyl)-2H-tetrazolium, inner salt (MTS) to a colored formazan product that is measured spectrophotometrically. […] After 3 hours of incubation at 37° C. with the MTS reagent, the plates were read on a Multilabel Counter (Victor2, Wallac, Perkin-Ehmer Inc., Norwalk, Conn.) and dye absorbance was measured at 490 nm.
(§4) The percentage of apoptotic cells was derived from the percentage of viable cells that was directly calculated from the values of the MTS assay. […]

[2] = test system: MDA-MB-231 breast cancer cells; test: MTS viability of MDA-MB-231 cells: chemotherapy- and anti-CD95-induced apoptosis; assay type: cell-based, human
Procedure: as §1, §2, §3, §4

[3] = cytokine pretreatment, 30 ng/ml anti-CD95 agonistic antibody

For “IL-2: human recombinant IL-2, control cytokine”, the “anti-CD95-induced apoptosis of LNCaP cells” value [1, 3] was “did not exert any protective effect”, the “drug-induced death of LNCaP cells” value ([1]; two days cytokine pretreatment (20 ng/ml), 300 ng/ml cisplatin or 1 μM vincristine) was “underwent apoptosis in response to chemotherapeutic agents” and the “anti-CD95-induced apoptosis of MDA-MB-231 cells” value [2, 3] was “did not exert any protective effect”. For the same substance, the “drug-induced death of MDA-MB-231 cells” value ([2]; two days cytokine pretreatment (20 ng/ml), 300 ng/ml cisplatin or 5 μM daunorubicin) was “underwent apoptosis in response to chemotherapeutic agents”.
